Reference: ChEMBL document CHEMBL5550106, “Recent advances in the exploration of oxazolidinone scaffolds from compound development to antibacterial agents and other bioactivities” (Eur J Med Chem, 2024)

Chains of the proteins cited; added tags and fusions are not shown. Residues count along the entry.
UniProt P00742, 41-179 limits assumed: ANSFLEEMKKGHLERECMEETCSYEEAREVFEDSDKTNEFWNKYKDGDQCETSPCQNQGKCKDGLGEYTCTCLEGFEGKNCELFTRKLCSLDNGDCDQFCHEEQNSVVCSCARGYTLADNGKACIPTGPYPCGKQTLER
UniProt P00742, 235-488 limits assumed: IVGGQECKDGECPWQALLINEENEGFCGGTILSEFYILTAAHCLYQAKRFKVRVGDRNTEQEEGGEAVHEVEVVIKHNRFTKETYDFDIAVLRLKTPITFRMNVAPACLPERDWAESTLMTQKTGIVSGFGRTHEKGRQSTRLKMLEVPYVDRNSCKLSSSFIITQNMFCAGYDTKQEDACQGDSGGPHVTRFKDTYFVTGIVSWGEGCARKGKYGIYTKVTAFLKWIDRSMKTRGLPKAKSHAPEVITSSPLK

Target: Coagulation factor X (Homo sapiens, UniProt P00742)
Experiment: Inhibition of human factor Xa

Compound `O=C(NC[C@@H]1OC(=O)N2c3ccc(N4CCCCC4=O)cc3OC[C@@H]12)c1ccc(Cl)s1` has an IC50 of 190 nM.
